Test results reported in ChEMBL document CHEMBL4184156, “Repurposing Hsp90 inhibitors as antibiotics targeting histidine kinases” (Bioorg Med Chem Lett, 2017).

System: Histidine protein kinase DivJ (Caulobacter vibrioides)
Assay: Inhibition of recombinant Caulobacter vibrioides N-terminal His6-tagged catalytic domain DivJ (188 to 585 residues) expressed in Escherichia coli BL21 (DE3) assessed as enzyme aggregation at 400 uM after 30 mins by native-PAGE analysis

## Oc1cc(O)c(-c2[nH]ncc2-c2ccc3c(c2)OCCO3)cc1Cl
  inhibition: inactive

Calls of active or inactive are those of the source. The calls are words filed in the database; no cut-off is given here.
